# Measured values published in patent US11260049B2, “TRPV4 antagonists” (GlaxoSmithKline Intellectual Property (No. 2) Limited, priority 2016, dated 2022).
# The chains behind the UniProt entries cited, without tags or fusion partners.
# UniProt Q9HBA0, whole entry: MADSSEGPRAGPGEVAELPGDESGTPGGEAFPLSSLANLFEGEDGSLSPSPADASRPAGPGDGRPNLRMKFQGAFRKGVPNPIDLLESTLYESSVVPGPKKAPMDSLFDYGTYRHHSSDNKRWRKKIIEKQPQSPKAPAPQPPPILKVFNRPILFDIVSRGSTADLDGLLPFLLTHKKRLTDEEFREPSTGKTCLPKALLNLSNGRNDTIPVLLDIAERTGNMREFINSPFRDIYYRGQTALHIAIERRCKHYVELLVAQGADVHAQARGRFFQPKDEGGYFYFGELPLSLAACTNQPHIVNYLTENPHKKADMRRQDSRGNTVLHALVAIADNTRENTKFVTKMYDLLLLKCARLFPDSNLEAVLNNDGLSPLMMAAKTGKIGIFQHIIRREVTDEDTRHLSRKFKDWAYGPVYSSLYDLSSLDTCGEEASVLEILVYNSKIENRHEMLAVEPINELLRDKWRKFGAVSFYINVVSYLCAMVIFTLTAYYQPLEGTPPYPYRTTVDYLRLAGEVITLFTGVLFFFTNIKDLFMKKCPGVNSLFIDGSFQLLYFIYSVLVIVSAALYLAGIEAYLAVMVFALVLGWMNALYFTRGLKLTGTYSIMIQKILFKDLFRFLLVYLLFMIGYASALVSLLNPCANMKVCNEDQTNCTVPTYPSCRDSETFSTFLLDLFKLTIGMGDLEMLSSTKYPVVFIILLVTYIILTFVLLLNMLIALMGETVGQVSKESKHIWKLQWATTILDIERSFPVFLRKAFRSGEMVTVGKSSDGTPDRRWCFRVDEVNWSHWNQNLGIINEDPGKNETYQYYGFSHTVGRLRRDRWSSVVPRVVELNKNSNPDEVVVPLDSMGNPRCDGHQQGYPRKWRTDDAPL
# Molecular target: human TRPV4 (Homo sapiens (Human), UniProt Q9HBA0)
# Assay: FLIPR assay for hTRPV4 expressed in BHK cells
# Format: cell-based
# Protocol: FLIPR Assay for hTRPV4 Expressed in BHK Cells:
# TRPV4 channel activation results in an influx of divalent and monovalent cations including calcium. The resulting changes in intracellular calcium were monitored using a calcium specific fluorescent dye Fluo-4 (MDS Analytical Technologies). BHK/AC9 cells transduced with BacMam virus expressing the human TRPV4 gene at a MOI of 78 were plated in a 384 well poly-D lysine coated plate (15,000 cells/well in 50 μL culture medium containing DMEM/F12 with 15 mM HEPES, 10% FBS, 1% Penicillin-Streptomycin and 1% L-glutamine). Cells were incubated for 24 hours at 37° C. and 5% CO2. Culture medium was then aspirated using a Tecan plate-washer and replaced with 20 μL/well of dye loading buffer: HBSS, 500 μM Brilliant Black (MDS Analytical Technologies), and 2 μM Fluo-4 AM. Dye loaded plates were then incubated in the dark at room temperature for 1˜1.5 hours.
row,SMILES,pIC50
1,"N#Cc1ccc(S(=O)(=O)N2C[C@H](S(=O)(=O)c3ccc(Cl)cc3)[C@@](O)(CN)C2)c(Cl)c1 [Example 122, 4-(((3R,4S)-3-(aminomethyl)-4-((4-chlorophenyl)sulfonyl)-3-hydroxypyrrolidin-1-yl)sulfonyl)-3-chlorobenzonitrile]",8.00 to 10.00
2,"N#Cc1ccc(S(=O)(=O)N2C[C@H](S(=O)(=O)c3ccc(Cl)cc3)[C@](O)(CN)C2)c(Cl)c1 [Example 123, 4-(((3S,4S)-3-(aminomethyl)-4-((4-chlorophenyl)sulfonyl)-3-hydroxypyrrolidin-1-yl)sulfonyl)-3-chlorobenzonitrile]",8.00 to 10.00

# pIC50: −log10 of the molar value.
